Data reported in ChEMBL document CHEMBL1125712 (J Med Chem, 1991).

Biological target: Aldo-keto reductase family 1 member B1 (Homo sapiens, UniProt P15121)

## O=C(O)Cc1nn(Cc2nc3cc(C(F)(F)F)ccc3s2)c(=O)c2ccccc12 [ZOPOLRESTAT]
  Ki: 19 nM
